Patent publication US8952157B2, “Apoptosis-inducing agents for the treatment of cancer and immune and autoimmune diseases” (AbbVie Inc., priority 2008, dated 2015)

Sequences of proteins named here, by UniProt entry; tags and fusion partners are left off.
UniProt P10415, whole entry: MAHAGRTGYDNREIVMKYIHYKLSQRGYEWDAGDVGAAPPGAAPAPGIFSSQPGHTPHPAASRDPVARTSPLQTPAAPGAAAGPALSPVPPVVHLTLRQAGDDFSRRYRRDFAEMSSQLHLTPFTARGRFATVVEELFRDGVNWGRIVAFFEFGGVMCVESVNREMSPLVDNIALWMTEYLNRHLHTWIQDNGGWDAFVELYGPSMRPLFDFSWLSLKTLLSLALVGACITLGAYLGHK

The compounds below were run against GST-Bcl-2 (Homo sapiens (Human), UniProt P10415) (assay: Time Resolved-Fluorescence Resonance Energy Transfer (TR-FRET) Bcl-2 binding assay). Conditions: GST-Bcl-2 1 nM, F-Bak peptide probe 100 nM, Tb-anti-GST antibody 1 nM; Ki by Wang's equation.
Protocol: Determination of the utility of compounds having Formula (I) as binders to and inhibitors of anti-apoptotic Bcl-2 proteins was performed using the Time Resolved-Fluorescence Resonance Energy Transfer (TR-FRET) Assay. Tb-anti-GST antibody was purchased from Invitrogen (Catalog No. PV4216).
(§1) Representative compounds were serially diluted in dimethyl sulfoxide (DMSO) starting at 50 μM (2× starting concentration; 10% DMSO) and 10 μL were transferred into a 384-well plate. The samples are then mixed on a shaker for 1 minute and incubated for an additional 3 hours at room temperature. For each assay, the probe/antibody and protein/probe/antibody were included on each assay plate as negative and positive controls, respectively. Fluorescence was measured on the Envision (Perkin Elmer) using a 340/35 nm excitation filter and 520/525 (F-Bak peptide) and 495/510 nm (Tb-labeled anti-Histidine antibody) emission filters.
as §1, with “The” for “Representative compounds were serially diluted in dimethyl sulfoxide (DMSO) starting at 50 μM (2× starting concentration; 10% DMSO) and 10 μL were transferred into a 384-well plate. The”, “were” for “are”
The inhibition constant (Ki) is the dissociation constant of an enzyme-inhibitor complex or a protein/small molecule complex, wherein the small molecule is inhibiting binding of one protein to another protein. So a large Ki value indicates a low binding affinity and a small Ki value indicates a high binding affinity.

Point of comparison: `CN1CCC(CNc2ccc(S(=O)(=O)NC(=O)c3ccc(N4CCN(CC5=C(c6ccc(Cl)cc6)CC(C)(C)CC5)CC4)cc3Oc3cccc(F)c3F)cc2[N+](=O)[O-])CC1` [Example 156, 4-(4-{[2-(4-chlorophenyl)-4,4-dimethylcyclohex-1-en-1-yl]methyl}piperazin-1-yl)-2-(2,3-difluorophenoxy)-N-[(4-{[(1-methylpiperidin-4-yl)methyl]amino}-3-nitrophenyl)sulfonyl]benzamide], Ki 0.035 nM. Against it:
- O=C(NS(=O)(=O)c1ccc(NCCCN2CCOCC2)c([N+](=O)[O-])c1)c1ccc(N2CCN(Cc3ccccc3-c3ccc(Cl)cc3)CC2)cc1Oc1ccccc1Cl [Example 10, 4-(4-((4′-chloro-1,1′-biphenyl-2-yl)methyl)piperazin-1-yl)-2-(2-chlorophenoxy)-N-((4-((3-morpholin-4-ylpropyl)amino)-3-nitrophenyl)sulfonyl)benzamide] — 21-fold higher, 0.72 nM
- CN(C)CCCNc1ccc(S(=O)(=O)NC(=O)c2ccc(N3CCN(Cc4ccccc4-c4ccc(Cl)cc4)CC3)cc2Oc2cccc(N3CCOCC3)c2)cc1[N+](=O)[O-] [Example 32, 4-(4-((4′-chloro-1,1′-biphenyl-2-yl)methyl)piperazin-1-yl)-N-((4-((3-(dimethylamino)propyl)amino)-3-nitrophenyl)sulfonyl)-2-(3-morpholin-4-ylphenoxy)benzamide] — 45-fold higher, 1.58 nM
- CN1CCC(Nc2ccc(S(=O)(=O)NC(=O)c3ccc(N4CCN(CC5=C(c6ccc(Cl)cc6)CC(C)(C)CC5)CC4)cc3Oc3ccccc3Br)cc2[N+](=O)[O-])CC1 [Example 42, 2-(2-bromophenoxy)-4-(4-((2-(4-chlorophenyl)-4,4-dimethylcyclohex-1-en-1-yl)methyl)piperazin-1-yl)-N-((4-((1-methylpiperidin-4-yl)amino)-3-nitrophenyl)sulfonyl)benzamide] — within 1.5-fold, 0.03 nM
- CC1(C)CCC(CN2CCN(c3ccc(C(=O)NS(=O)(=O)c4ccc(NC5CCN(C6CC6)CC5)c([N+](=O)[O-])c4)c(Oc4ccccc4Cl)c3)CC2)=C(c2ccc(Cl)cc2)C1 [Example 65, 2-(2-chlorophenoxy)-4-(4-((2-(4-chlorophenyl)-4,4-dimethylcyclohex-1-en-1-yl)methyl)piperazin-1-yl)-N-((4-((1-cyclopropylpiperidin-4-yl)amino)-3-nitrophenyl)sulfonyl)benzamide] — 15-fold higher, 0.52 nM
- CCNCc1ccc(Oc2cc(N3CCN(Cc4ccccc4-c4ccc(Cl)cc4)CC3)ccc2C(=O)NS(=O)(=O)c2ccc(NCC3CCOCC3)c([N+](=O)[O-])c2)cc1 [Example 80, 4-(4-((4′-chloro-1,1′-biphenyl-2-yl)methyl)piperazin-1-yl)-2-(4-((ethylamino)methyl)phenoxy)-N-((3-nitro-4-((tetrahydro-2H-pyran-4-ylmethyl)amino)phenyl)sulfonyl)benzamide] — 4300-fold higher, 149 nM
- CC1(C)CCC(CN2CCN(c3ccc(C(=O)NS(=O)(=O)c4ccc(NCCCN5CCOCC5)c([N+](=O)[O-])c4)c(Oc4cccc(F)c4)c3)CC2)=C(c2ccc(Cl)cc2)C1 [Example 114, 4-(4-{[2-(4-chlorophenyl)-4,4-dimethylcyclohex-1-en-1-yl]methyl}piperazin-1-yl)-2-(3-fluorophenoxy)-N-({4-[(3-morpholin-4-ylpropyl)amino]-3-nitrophenyl}sulfonyl)benzamide] — within 1.5-fold, 0.036 nM
- CC1(C)CCC(CN2CCN(c3ccc(C(=O)NS(=O)(=O)c4ccc(NC5CCN(C6CCCC6)CC5)c([N+](=O)[O-])c4)c(Oc4ccccc4F)c3)CC2)=C(c2ccc(Cl)cc2)C1 [Example 134, 4-(4-{[2-(4-chlorophenyl)-4,4-dimethylcyclohex-1-en-1-yl]methyl}piperazin-1-yl)-N-({4-[(1-cyclopentylpiperidin-4-yl)amino]-3-nitrophenyl}sulfonyl)-2-(2-fluorophenoxy)benzamide] — 5.2-fold higher, 0.181 nM
- CC1(C)CCC(CN2CCN(c3ccc(C(=O)NS(=O)(=O)c4ccc(NC5CCN(C6CCOCC6)CC5)c([N+](=O)[O-])c4)c(Oc4c(F)cccc4Cl)c3)CC2)=C(c2ccc(Cl)cc2)C1 [Example 152, 2-(2-chloro-6-fluorophenoxy)-4-(4-{[2-(4-chlorophenyl)-4,4-dimethylcyclohex-1-en-1-yl]methyl}piperazin-1-yl)-N-({3-nitro-4-[(1-tetrahydro-2H-pyran-4-ylpiperidin-4-yl)amino]phenyl}sulfonyl)benzamide] — 530-fold higher, 18.6 nM
- COCCOCCN1CCC(Nc2ccc(S(=O)(=O)NC(=O)c3ccc(N4CCN(CC5=C(c6ccc(Cl)cc6)CC(C)(C)CC5)CC4)cc3Oc3cccc(Cl)c3)cc2[N+](=O)[O-])CC1 [Example 170, 2-(3-chlorophenoxy)-4-(4-{[2-(4-chlorophenyl)-4,4-dimethylcyclohex-1-en-1-yl]methyl}piperazin-1-yl)-N-{[4-({1-[2-(2-methoxyethoxy)ethyl]piperidin-4-yl}amino)-3-nitrophenyl]sulfonyl}benzamide] — within 1.5-fold, 0.036 nM
- CN(C)C(=O)CN1CCC(Nc2ccc(S(=O)(=O)NC(=O)c3ccc(N4CCN(CC5=C(c6ccc(Cl)cc6)CC(C)(C)CC5)CC4)cc3Oc3cccc(Cl)c3)cc2[N+](=O)[O-])CC1 [Example 189, 2-(3-chlorophenoxy)-4-(4-{[2-(4-chlorophenyl)-4,4-dimethylcyclohex-1-en-1-yl]methyl}piperazin-1-yl)-N-{[4-({1-[2-(dimethylamino)-2-oxoethyl]piperidin-4-yl}amino)-3-nitrophenyl]sulfonyl}benzamide] — within 1.5-fold, 0.036 nM
- CC1(C)CCC(CN2CCN(c3ccc(C(=O)NS(=O)(=O)c4ccc(NCC5(N)CCOCC5)c([N+](=O)[O-])c4)c(Oc4ccccc4Cl)c3)CC2)=C(c2ccc(Cl)cc2)C1 [Example 191, N-[(4-{[(4-aminotetrahydro-2H-pyran-4-yl)methyl]amino}-3-nitrophenyl)sulfonyl]-2-(2-chlorophenoxy)-4-(4-{[2-(4-chlorophenyl)-4,4-dimethylcyclohex-1-en-1-yl]methyl}piperazin-1-yl)benzamide] — 16-fold higher, 0.552 nM
- CC1(C)CCC(CN2CCN(c3ccc(C(=O)NS(=O)(=O)c4ccc(NC5CCN(C6CCOCC6)CC5)c([N+](=O)[O-])c4)c(OCc4csc(N)n4)c3)CC2)=C(c2ccc(Cl)cc2)C1 [Example 219, 2-[(2-amino-1,3-thiazol-4-yl)methoxy]-4-(4-{[2-(4-chlorophenyl)-4,4-dimethylcyclohex-1-en-1-yl]methyl}piperazin-1-yl)-N-({3-nitro-4-[(1-tetrahydro-2H-pyran-4-ylpiperidin-4-yl)amino]phenyl}sulfonyl)benzamide] — 430-fold higher, 14.9 nM
- CN1CCN(Nc2ccc(S(=O)(=O)NC(=O)c3ccc(N4CCN(CC5=C(c6ccc(Cl)cc6)CC(C)(C)CC5)CC4)cc3Oc3cc4cc[nH]c4cc3F)cc2[N+](=O)[O-])CC1 [Example 221, 4-(4-{[2-(4-chlorophenyl)-4,4-dimethylcyclohex-1-en-1-yl]methyl}piperazin-1-yl)-2-[(6-fluoro-1H-indol-5-yl)oxy]-N-({4-[(4-methylpiperazin-1-yl)amino]-3-nitrophenyl}sulfonyl)benzamide] — 6.5-fold higher, 0.227 nM
- CC1(C)CCC(CN2CCN(c3ccc(C(=O)NS(=O)(=O)c4ccc(NC5CCN(CC6CC6)CC5)c([N+](=O)[O-])c4)c(Oc4cc5cc[nH]c5c(F)c4F)c3)CC2)=C(c2ccc(Cl)cc2)C1 [Example 237, 4-(4-{[2-(4-chlorophenyl)-4,4-dimethylcyclohex-1-en-1-yl]methyl}piperazin-1-yl)-N-[(4-{[1-(cyclopropylmethyl)piperidin-4-yl]amino}-3-nitrophenyl)sulfonyl]-2-[(6,7-difluoro-1H-indol-5-yl)oxy]benzamide] — 5.6-fold higher, 0.197 nM
- CC1(C)CCC(CN2CCN(c3ccc(C(=O)NS(=O)(=O)c4ccc(NCCCN5CCNC(=O)C5)c([N+](=O)[O-])c4)c(Oc4cc5cc[nH]c5c(F)c4F)c3)CC2)=C(c2ccc(Cl)cc2)C1 [Example 239, 4-(4-{[2-(4-chlorophenyl)-4,4-dimethylcyclohex-1-en-1-yl]methyl}piperazin-1-yl)-2-[(6,7-difluoro-1H-indol-5-yl)oxy]-N-[(3-nitro-4-{[3-(3-oxopiperazin-1-yl)propyl]amino}phenyl)sulfonyl]benzamide] — 3-fold higher, 0.105 nM
- CC1(C)CCC(CN2CCN(c3ccc(C(=O)NS(=O)(=O)c4ccc(NCC5(CO)CCOCC5)c([N+](=O)[O-])c4)c(Oc4ccccc4Cl)c3)CC2)=C(c2ccc(Cl)cc2)C1 [Example 250, 2-(2-chlorophenoxy)-4-(4-{[2-(4-chlorophenyl)-4,4-dimethylcyclohex-1-en-1-yl]methyl}piperazin-1-yl)-N-{[4-({[4-(hydroxymethyl)tetrahydro-2H-pyran-4-yl]methyl}amino)-3-nitrophenyl]sulfonyl}benzamide] — 19-fold higher, 0.672 nM
- CC(C1=C(c2ccc(Cl)cc2)CC(C)(C)CC1)N1CCN(c2ccc(C(=O)NS(=O)(=O)c3ccc(NCC4CCOCC4)c([N+](=O)[O-])c3)c(Oc3cc4cc[nH]c4cc3F)c2)CC1 (stereo not drawn) [Example 256, 4-(4-{1-[2-(4-chlorophenyl)-4,4-dimethylcyclohex-1-en-1-yl]ethyl}piperazin-1-yl)-2-[(6-fluoro-1H-indol-5-yl)oxy]-N-({3-nitro-4-[(tetrahydro-2H-pyran-4-ylmethyl)amino]phenyl}sulfonyl)benzamide] — 3-fold higher, 0.105 nM
